Reference: patent US8778342B2, “Antibody therapy” (Immunomedics, Inc., priority 2002, dated 2014)

Test system: TT tumors
Assay: Naked anti-CEA MAb alone on growth of TT tumors in nude mice

Row | Substance | effect on tumor growth (specificity of treatment) (0.5 mg/mouse i.v. one day after TT cells, then three weekly doses) | mean tumor volume as % of the size of tumors in the untreated animals (2 lowest treatment groups (0.125 mg and 0.25 mg weekly), between day-21 and day-49)
1 | hLL2: negative control humanized MAb, anti-CD22 [reference compound] | did not slow tumor growth | 
2 | hMN-14: humanized (CDR-grafted) Class III anti-CEA monoclonal antibody MN-14, naked |  | 27-40%
